Results taken from ChEMBL document CHEMBL1154886, “DNA-damaging, mutagenic, and clastogenic activities of gentiopicroside isolated from Cephalaria kotschyi roots” (J Nat Prod, 2010).

Experiment: Mutagenic activity in Salmonella typhimurium TA98 assessed as increase in number of revertants at 0.002 ug/plate by Ames test absence of S9 fraction (Rvb=22+/- 4)
Settings: salmonella enterica subsp. enterica serovar typhimurium

## O=C1c2cc([N+](=O)[O-])ccc2-c2c1cc([N+](=O)[O-])cc2[N+](=O)[O-]
  Activity: 727
